Drawing on patent EP3816180A1, this text covers second order rate constant for the labelling (FP kinetics, Halo-TMR, in presence of calcium) for one substance.

The target in this experiment is M13-GGS-cpHaloΔ9mer. The experiment can be described thus: cell-based or functional assay.

With “9mer-GGS-CaM (from UniProt P0DP23 3-149)”, the second order rate constant for the labelling (FP kinetics, Halo-TMR, in presence of calcium) was found to be 6700 s^-1M^-1.
